This assay has as its system Sf21. Put plainly: Irreversible covalent inhibition of C-terminal His-tagged HER2 YVMA mutant (703 to 1029 residues)(unknown origin) expressed in Sf21 cells assessed as Kinact/Ki in presence of ATP. Particulars: Homo sapiens.

The values below come from ChEMBL document CHEMBL5506072, “Discovery of Potent and Selective Covalent Inhibitors of HER2WT and HER2YVMA” (J Med Chem, 2024).

For the molecule `C=CC(=O)N1CCC[C@@H](n2nc(-c3ccc(Oc4ccccc4)cc3)c3c(N)ncnc32)C1` [IBRUTINIB], the K was 7 10^4/M/s.
